From ChEMBL document CHEMBL4742400, “Protein kinase mkk4 inhibitors for promoting liver regeneration or reducing or preventing hepatocyte death” (2019)

What was measured:
Homo sapiens [1] = organism: Homo sapiens; assay: (§1) Selectivity index, ratio of inhibition of full length human MKK7 (M1 to R419 residues) expressed in mammalian expression system assessed as residual percent of control binding at 100 nM relative to control to inhibition of partial length human MKK4 (S84 to D399 residues) expressed in mammalian expression system assessed as residual percent of control binding at 100 nM relative to control
Homo sapiens [2] = organism: Homo sapiens; assay: Selectivity index, ratio of inhibition of B-raf (unknown origin) to inhibition of partial length human MKK4 (S84 to D399 residues) expressed in mammalian expression system assessed as residual percent of control binding at 100 nM relative to control
Homo sapiens [3] = organism: Homo sapiens; assay: as §1, with “JNK1” for “MKK7”, “Q384” for “R419”

Measured: Selectivity ratio

CCCS(=O)(=O)Nc1ccc(F)c(C(O)c2n[nH]c3ncc(-c4ccc(Cl)cc4)cc23)c1F (stereo unspecified)
< 3: all assays above

CCCS(=O)(=O)Nc1ccc(F)c(C(=O)Nc2n[nH]c3ncc(-c4ccc(Cl)cc4)cc23)c1F
< 3: all assays above
